Drawing on PubChem BioAssay AID504660 (National Center for Advancing Translational Sciences (NCATS), 2011), this text covers activation for 60 compounds.

Sequences of proteins named here, by UniProt entry; tags and fusion partners are left off.
UniProt P21728, whole entry: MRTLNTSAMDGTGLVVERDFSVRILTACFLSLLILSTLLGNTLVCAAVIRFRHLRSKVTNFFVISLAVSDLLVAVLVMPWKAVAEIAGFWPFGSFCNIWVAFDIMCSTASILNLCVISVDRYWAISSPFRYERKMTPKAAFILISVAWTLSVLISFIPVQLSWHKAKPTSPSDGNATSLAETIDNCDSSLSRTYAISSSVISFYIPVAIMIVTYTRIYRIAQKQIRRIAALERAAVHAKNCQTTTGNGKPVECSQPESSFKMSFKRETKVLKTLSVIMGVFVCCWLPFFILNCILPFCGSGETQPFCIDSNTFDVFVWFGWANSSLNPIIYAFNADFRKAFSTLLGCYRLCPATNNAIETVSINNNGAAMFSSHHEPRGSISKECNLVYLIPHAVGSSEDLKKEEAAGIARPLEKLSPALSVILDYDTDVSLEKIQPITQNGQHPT

SMILES strings stand for the structures. This is a selection; strong and weak results do not stand in their true shares. The source made the active and inactive calls. Rule as the data show it: active = activation above about 30%; inactive = the rest.

The assay addresses D(1A) dopamine receptor (Homo sapiens) (UniProt P21728). Briefly: Allosteric Agonists of the Human D1 Dopamine Receptor: qHTS. Also: 0% is about no effect. The conditions noted are these: HEK293 T-REx D1 cells, calcium flux, agonist mode; at 2 µM; active compounds read high. The source says: NIH Chemical Genomics Center [NCGC] NIH Molecular Libraries Probe Centers Network [MLPCN] MLPCN Grant: NS064831-01 Assay Submitter (PI): David Sibley Dopamine receptors (DARs) are involved in the etiology and/or therapy of a number of neuropsychiatric and endocrine disorders. For instance, all receptor-based antiparkinsonian drugs work via stimulating the D1 DAR subtype whereas all FDA-approved antipsychotic agents are antagonists of this receptor. […] There are three different types of allosteric modulators that we are seeking, two of which will stimulate or augment receptor signaling, allosteric agonists and potentiators, while the third, allosteric antagonists, will attenuate receptor signaling. The present primary screening assay measures compound agonism by tracking calcium flux in a […], inducible Hek293 Trex D1 cell line.
Freshly passaged cells are plated in 1536 well black, clear bottom plates at a density of 4000 cells/well in 3 ul of complete media containing 1x tetracycline inducer. After an overnight incubation at […] in 5% CO2, cells are loaded with 2 ul of the no wash Calcium Assay Kit (ABD Bioquest) and incubated at room temperature for 30 to 90 minutes. Agonist read: A 10 cycle (1 second/cycle) baseline measurement is taken and then the FDSS online 1536 pintool delivers 23 nl of compound library (as well as dopamine controls) to the plate. The plate is measured for kinetically at 1 cycle/sec for 180 seconds and is considered to be the agonist portion of the assay (eg, compounds which activate a positive calcium response during this portion are flagged as potential agonists). Following the 180 second read, 1 ul of either an EC20 (positive modulation assay) or EC80 (negative modulation assay) is delivered by an onboard pipette head. Measurements are taken kinetically for an additional 180 seconds.
(Quantitative high-throughput screening tests each substance at several concentrations.)
Consider `CCN(CC)CCCOC(=O)C(O)(c1ccccc1)c1ccccc1`, for which the activation was inactive: 1.41%.
The same measure for `CCOC(=O)c1ccc(NP(C)(=O)Oc2ccccc2)cc1` (stereo not given): inactive: 4.61%; for `COc1ccccc1OP(C)(=O)Nc1ccc(C)cc1` (stereo not given): inactive: 0.0551%; for `Cc1ccc(NP(C)(=O)Oc2ccccc2)c(C)c1` (stereo not given): inactive: 3.92%.
In the case of `COc1ccccc1OP(C)(=O)Nc1cc(Cl)ccc1C` (stereo not given), the activation was inactive: 0.531%.
The same measure for `COc1ccc(OP(C)(=O)Nc2cccc(F)c2)cc1` (stereo not given): inactive: 1.13%; for `Cc1cc(C)cc(OP(C)(N)=O)c1` (stereo not given): inactive: 2.86%.
In the case of `CC(C)(C)c1ccc(OP(C)(=O)Nc2ccc(SC(F)(F)F)cc2)cc1` (stereo not given) it was inactive: 2.67%; in that of `Cc1cccc(C)c1OP(C)(N)=O` (stereo not given), inactive: 4.47%; in that of `O=[N+]([O-])c1ccc2c(c1)C=Nc1ccccc1O2`, inactive: 4.33%.
In the case of `CP(=S)(Nn1cnnc1)Oc1ccccc1` (stereo not given) it was inactive: 4.52%; in that of `COc1ccccc1OP(C)(=O)Nc1ccccc1` (stereo not given), inactive: -1.62%; in that of `CP(=O)(Nc1ccccc1Br)Oc1ccccc1` (stereo not given), inactive: 2.87%.
As to `CCOP(C)(=S)SCC(=O)NC(C)C(=O)O` (stereo not given), the activation is inactive: 7.08%.
In the case of `CCOC(=O)c1ccc(NP(C)(=O)Oc2ccc(OC)cc2)cc1` (stereo not given) it was inactive: 3.26%.
In the case of `CP(=O)(Nc1ccccn1)Oc1ccc(Cl)cc1` (stereo not given) it was inactive: 0.396%; in that of `Cc1cccc(C)c1OP(C)(=O)Nc1ccc(SC(F)(F)F)cc1` (stereo not given), inactive: 13.6%.
The same measure for `CP(=O)(Nc1ccc(SC(F)(F)F)cc1)Oc1ccc(Cl)cc1` (stereo not given): inactive: 2.79%; for `CP(=O)(Oc1ccccc1)OC(c1ccccc1)C(F)(F)F` (stereo not given): inactive: 7.97%; for `CP(=O)(NC(=O)Nc1ccccc1)Oc1ccccc1` (stereo not given): inactive: 1.65%.
On to `CCc1ccc(OP(C)(=O)N2CCN(c3ccc([N+](=O)[O-])cc3)CC2)cc1` (stereo not given), for which the activation is inactive: 4.71%.
In the case of `Cc1cc(C)cc(OP(C)(=O)Nc2ccc(SC(F)(F)F)cc2)c1` (stereo not given) it was inactive: 6.38%.
As to `Cc1nc2ccc3ccccc3c2s1.O=[N+]([O-])c1cc([N+](=O)[O-])c(O)c([N+](=O)[O-])c1`, the activation was inactive: -0.879%.
In the case of `O=[N+]([O-])c1cc([N+](=O)[O-])c(-n2nnc3ccccc32)c([N+](=O)[O-])c1` it was inactive: 0.668%; in that of `COc1ccccc1OP(C)(=O)Nc1c(C)cccc1C` (stereo not given), inactive: 5.18%.
Take `CN1CCCCC1COC(=O)C1(O)c2ccccc2CCc2ccccc21` (stereo not given): the activation was inactive: 28.4%.
As for `CCCOc1ccc(NP(C)(=O)Oc2ccc(Cl)cc2)cc1` (stereo not given), the activation was inactive: 1.63%.
In the case of `CP(=O)(Nc1ccc(SC(F)(F)F)cc1)Oc1ccccc1` (stereo not given) it was inactive: 4.21%; in that of `CC1=C2N=C(C=C3N=C(C(C)=C4[N-][C@@](C)([C@@H]5N=C1[C@](C)(CCC(=O)NC[C@@H](C)OP(=O)([O-])O[C@H]1[C@@H](O)[C@@H](n6cnc7cc(C)c(C)cc76)O[C@@H]1CO)[C@H]5CC(N)=O)[C@@](C)(CC(N)=O)[C@@H]4CCC(N)=O)[C@@](C)(CC(N)=O)[C@@H]3CCC(N)=O)C(C)(C)[C@@H]2CCC(N)=O.[C-]#N.[Co+3]`, inactive: 4.44%.
In the case of `O=[N+]([O-])c1cc([N+](=O)[O-])c(Nc2nnnn2CCO)c([N+](=O)[O-])c1` it was inactive: 1.05%.
The same measure for `CC1=NCCc2c1[nH]c1ccccc21.O=[N+]([O-])c1cc([N+](=O)[O-])c(O)c([N+](=O)[O-])c1`: inactive: 5.14%; for `Cc1cc(C)cc(OP(C)(=O)Nc2ccccn2)c1` (stereo not given): inactive: 6.74%; for `CP(=O)(Nc1cccc(Br)c1)Oc1ccccc1` (stereo not given): inactive: 8.77%.
Regarding `Cc1ccc(C)c(NP(C)(=O)Oc2ccccc2)c1` (stereo not given), the activation is inactive: 2.02%.
In the case of `COc1ccccc1OP(C)(=O)Nc1cccc(Br)c1` (stereo not given) it was inactive: -0.238%; in that of `Cc1cc(C)cc(OP(C)(=O)Nc2ccc(C)cc2C)c1` (stereo not given), inactive: 5.81%; in that of `CCOC(=O)c1ccc(NP(C)(=O)Oc2cc(C)cc(C)c2)cc1` (stereo not given), inactive: 22.3%.
In the case of `O=C(OCCN1CCN(CCOCc2ccccc2)CC1)C(O)(c1ccccc1)c1ccccc1` it was inactive: 4.82%; in that of `CC(C)c1ccc(OP(C)(=O)Nc2ccc(SC(F)(F)F)cc2)cc1` (stereo not given), inactive: 2.2%; in that of `CP(=O)(Nc1ccccc1F)Oc1ccccc1` (stereo not given), inactive: 1.2%.
The same measure for `CCN(CC)CCCOC(=O)C(O)(c1ccccc1)C1CCCCC1` (stereo not given): inactive: 3.47%.
On to `CCCCCOc1ccc(NP(C)(=O)Oc2ccc(Cl)cc2Cl)cc1` (stereo not given), for which the activation was inactive: 4.22%.
In the case of `CP(=O)(Nc1ccccc1)Oc1ccc(F)cc1` (stereo not given) it was inactive: 2.38%; in that of `COc1ccc(OP(C)(=O)Nc2ccc(SC(F)(F)F)cc2)cc1` (stereo not given), inactive: -0.6%.
Take `CCOC(=O)c1ccc(NP(C)(=O)Oc2ccc(F)cc2)cc1` (stereo not given): the activation was inactive: 12.7%.
For `Cc1cc(-c2cccc3ccccc23)c(C)cn1.O=[N+]([O-])c1cc([N+](=O)[O-])c(O)c([N+](=O)[O-])c1`, the activation is inactive: 7.66%.
The same measure for `O=[N+]([O-])c1ccc(OP2(=O)COCCO2)cc1` (stereo not given): inactive: 1.03%.
`COc1ccc(OP(C)(=O)Nc2cccc(Br)c2)cc1` (stereo not given): the activation is inactive: 3.66%.
The same measure for `COc1ccc(NP(C)(=O)Oc2ccccc2OC)cc1` (stereo not given): inactive: 0.318%; for `CN(C)CCOC(=O)C(O)(c1ccccc1)C1CCCCC1` (stereo not given): inactive: 4.22%.
For the compound `CP(=O)(Nc1ccc2c(c1)OCCO2)Oc1ccccc1` (stereo not given), the activation was inactive: -0.101%.
Regarding `Cc1ccccc1NP(C)(=O)Nc1ccccc1C`, the activation was inactive: 3.46%.
For the compound `CP(=O)(Nc1ccc(SC(F)(F)F)cc1)Oc1ccc(F)cc1` (stereo not given), the activation was inactive: 0.697%.
Take `CCOP(C)(=S)SCC(=O)NC(C)(CC)C(=O)O` (stereo not given): the activation is inactive: 3.55%.
The same measure for `CP(=O)(Nc1ccc(Cl)cc1)Oc1ccc(F)cc1` (stereo not given): inactive: 0.782%; for `COc1ccccc1OP(C)(=O)Nc1ccccc1Br` (stereo not given): inactive: 1.08%; for `CC(C)(C)c1ccc(OP(C)(=O)O)cc1`: inactive: 5.69%.
The same measure for `CN(C)C(=O)c1c([N+](=O)[O-])cc([N+](=O)[O-])cc1[N+](=O)[O-]`: inactive: 1.2%; for `CCN(CC)CC(O)COC(=O)C(O)(c1ccccc1)C1CCCCC1` (stereo not given): inactive: 8.85%; for `COc1ccc(OP(C)(=O)Nc2ccc(Br)cc2)cc1` (stereo not given): inactive: 2.83%.
